Assays:
PD-1/PD-L1 interaction = PD-1/PD-L1 interaction (Homo sapiens, UniProt Q9NZQ7); experiment: PD-1/PD-L1 NFAT Reporter Assay; details: read-out: Jurkat NFAT EC50; co-culture of PD-L1 expressing CHO cells and PD-1 overexpressing Jurkat cells, 6 hrs, NFAT luciferase
Procedure: Blocking the PD-1/PD-L1 interaction will release the inhibitory signal and results in TCR signaling and NFAT-mediated luciferase activity.
CHO cells expressing surface-bound anti-CD3 antibodies and PD-L1 were first seeded overnight and treated with the compounds. Jurkat cells overexpressing PD-1 and a luciferase construct under NFAT promoter were then immediately seeded on the monolayer of CHO cells. The co-culture was then incubated for 6 hrs at 37° C. Luciferase activity was assessed by adding the ONE-Glo reagent and measuring luminescence with a plate reader. EC50 values were determined from the fit of the dose-response curves.

The chains behind the UniProt entries cited, without tags or fusion partners. Residues count along the entry.
UniProt Q9NZQ7, 19-238 limits assumed: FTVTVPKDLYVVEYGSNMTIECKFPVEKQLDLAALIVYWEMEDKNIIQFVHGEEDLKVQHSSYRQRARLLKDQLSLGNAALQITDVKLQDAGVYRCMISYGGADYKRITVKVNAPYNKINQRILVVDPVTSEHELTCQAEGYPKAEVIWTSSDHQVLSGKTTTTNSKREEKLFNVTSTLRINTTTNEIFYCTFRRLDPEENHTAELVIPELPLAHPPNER
UniProt Q9NZQ7, 19-290 limits assumed: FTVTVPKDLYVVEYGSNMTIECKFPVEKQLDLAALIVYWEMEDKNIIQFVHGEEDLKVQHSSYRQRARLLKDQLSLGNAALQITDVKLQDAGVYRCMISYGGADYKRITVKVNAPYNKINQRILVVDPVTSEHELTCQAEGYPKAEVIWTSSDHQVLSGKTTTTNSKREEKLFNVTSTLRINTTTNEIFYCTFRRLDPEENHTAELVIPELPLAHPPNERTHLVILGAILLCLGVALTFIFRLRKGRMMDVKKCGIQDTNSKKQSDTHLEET

PDL1/PD1 = PDL1/PD1 (Homo sapiens, UniProt Q9NZQ7); experiment: PDL1/PD1 Binding Assay; details: read-out: PD-1/PD-L1 PPI IC50; PDL1-6×His 0.3 nM, PD1-Fc-Avi-Biotin 2.5 nM, Acceptor/Donor beads
Procedure: Compounds to be tested were serially diluted in DMSO, and further diluted in assay buffer (25 mM Hepes pH 7.4, 150 mM NaCl, 0.005% Tween 20, BSA 0.01%). Diluted compounds were added to the wells with final concentration of DMSO at 1%. PDL1-6×His protein was added to the wells, mixed well with compound. The plates were incubated for 30 min at room temperature. PD1-Fc-Avi-Biotin protein was added to the wells. Final concentration of PDL1 and PD1 protein is 0.3 nM and 2.5 nM, respectively. After a binding time of 30 min at room temperature, Anti-6×His Acceptor beads (final concentration 20 ug/ml) were added to the wells, and the incubation continued for 1 h. Streptavidin Donor beads (final concentration 20 ug/mL) were added at reduced light. The plates were sealed with foil and incubated in the dark for additional 1 h or overnight before reading on an Envision reader. The IC50 values were determined by fitting the curves using a four-parameter equation in Graphpad Prism 8.

In the case of `CCOC(=O)N(Cc1ncc(-c2cccc(-c3cccc(NC(=O)c4ccnn(C)c4=O)c3Cl)c2Cl)nc1OC)C[C@@H]1CCC(=O)N1`, the EC50 (PD-1/PD-L1 interaction) is reported as > 5 µM and the IC50 (PDL1/PD1) is reported as 0.01 to 0.1 µM.

Reference: US12428427B2, “Methods and compositions for targeting PD-L1” (Aligos Therapeutics, Inc., priority 2021, dated 2025)
